Apparent affinities of Ab-14 variants for a coronavirus HR2 peptide

From the AlphaSeq antibody data of Engelhart et al. 2022 (doi:10.1038/s41597-022-01779-4), copy in the FLAb collection.

The target is the same throughout: PDVDLGDISGINAS, from the HR2 region of SARS-CoV-2 spike.

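Phage display of a naive human antibody library on the peptide gave the parent. The library (AAYL50) carries one to three amino acid substitutions per variant, with no insertions or deletions. The scFvs were displayed on barcoded MATa yeast, the peptide on MATalpha yeast. Binding brings cells together so that they mate, and sequencing counts the barcode pairs among the diploids. Read counts were normalised to the haploid input and turned into Kd by a linear fit to BCL2-family pairs of known affinity, for each replicate. Mating was done three times.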

The variants keep the heavy chain, the linker and the frameworks of Ab-14 (scFv order VH, a 15-residue (Gly4Ser)3 linker, VL).
VH: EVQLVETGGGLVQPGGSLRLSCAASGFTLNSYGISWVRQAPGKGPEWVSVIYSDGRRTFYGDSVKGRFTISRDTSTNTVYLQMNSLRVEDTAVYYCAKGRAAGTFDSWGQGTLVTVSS
VL: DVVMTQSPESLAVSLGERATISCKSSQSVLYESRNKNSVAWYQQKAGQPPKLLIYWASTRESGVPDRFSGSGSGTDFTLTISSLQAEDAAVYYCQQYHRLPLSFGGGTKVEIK

Changes read parent residue, position, new residue, counted from the first residue of the VL shown. Values are log10 of the apparent Kd in nM; lower means stronger binding. A mean of the replicates is given; it leaves out those without a signal. "nd" marks a missing value. The strain was present, yet no cells mated with the target were sequenced in that replicate, which points to weak or no binding.

For L30P E32V E61F, the assay gave 1.74, 1.73, 1.65 (mean 1.71; controls 3 of 9).
For Q27T E32F S62F, the assay gave 4.81, 3.57, 4.69 (mean 4.36; controls 5 of 9).
For E32H S33D Q95A, the assay gave nd, nd, nd (controls 1 of 9).
For S26E R34V Q95R, the assay gave nd, nd, nd (controls 1 of 9).
For N37S Q96V S103L, the assay gave 4.07, 3.58, nd (mean 3.83; controls 2 of 9).
For N35G A57R S62N, the assay gave 3.42, nd, nd (controls 1 of 9).
For S26D S58D Q96H, the assay gave 1.10, 1.42, 1.15 (mean 1.23; controls 1 of 9).
For Y31K E61N S62W, the assay gave nd, 3.05, 3.71 (mean 3.38; controls 0 of 9).
For S25A S28T E61K, the assay gave 4.29, 1.92, nd (mean 3.10; controls 0 of 9).
For S25W Q27L, the assay gave 1.69, 1.62, 1.53 (mean 1.62; controls 0 of 9).
For R34G S62E Q95R, the assay gave nd, nd, nd (controls 0 of 9).
For Q27I W56N, the assay gave 0.17, 0.46, 0.33 (mean 0.32; controls 0 of 9).
For S25V V29I, the assay gave -0.38, 0.03, -0.11 (mean -0.15; controls 2 of 9).
For S26W V29N S103C, the assay gave 2.50, nd, 3.57 (mean 3.03; controls 3 of 9).
For S26T S33E H98K, the assay gave 5.79, nd, nd (controls 0 of 9).
For V29I N35P Y97W, the assay gave nd, nd, nd (controls 0 of 9).
For S58Q R99A, the assay gave 3.48, 2.61, 2.83 (mean 2.98; controls 4 of 9).
For N37E E61L Q96T, the assay gave 3.37, nd, nd (controls 3 of 9).
For L30C E32I W56E, the assay gave nd, nd, nd (controls 0 of 9).
For Q27K V39G S103E, the assay gave nd, nd, nd (controls 1 of 9).
For S25P S62N P101I, the assay gave 3.19, 3.12, 2.95 (mean 3.09; controls 3 of 9).
For V29L S58D P101E, the assay gave nd, nd, nd (controls 0 of 9).
For S28M V29K S103E, the assay gave 1.28, 1.65, 1.96 (mean 1.63; controls 1 of 9).
For S26I Q27R S33W, the assay gave nd, nd, 3.77 (controls 0 of 9).
For V29R S58A, the assay gave 2.39, 2.62, 2.06 (mean 2.35; controls 0 of 9).
For R34L R99L, the assay gave 2.82, 2.30, 2.52 (mean 2.55; controls 3 of 9).
For S58H Y97T, the assay gave nd, 2.05, 2.37 (mean 2.21; controls 1 of 9).
For K24T Q96A H98D, the assay gave 2.88, 3.79, 3.47 (mean 3.38; controls 4 of 9).
For L30V H98F L102N, the assay gave 0.55, 0.79, 0.72 (mean 0.69; controls 2 of 9).
For E32I T59D E61H, the assay gave 2.87, 2.45, 3.14 (mean 2.82; controls 3 of 9).
For L30K Y31N R60N, the assay gave nd, nd, nd (controls 0 of 9).
For Q27H L30K S33R, the assay gave 4.40, 3.07, 3.23 (mean 3.57; controls 2 of 9).
For A40W T59R S62K, the assay gave 3.75, nd, 3.87 (mean 3.81; controls 2 of 9).
For E32M A40E S58L, the assay gave nd, 4.29, nd (controls 0 of 9).
For S33E A40M L102R, the assay gave nd, nd, nd (controls 2 of 9).
For A40P S58K L100S, the assay gave nd, nd, 3.49 (controls 0 of 9).
For R34Y A57C Q96E, the assay gave 2.78, nd, 1.97 (mean 2.38; controls 1 of 9).
For R60T Q95S S103Y, the assay gave 3.88, nd, 3.73 (mean 3.81; controls 0 of 9).
For S26R S62I, the assay gave 2.01, 1.84, 1.91 (mean 1.92; controls 6 of 9).
For E61G Q96C Y97D, the assay gave 2.41, 2.33, 2.96 (mean 2.57; controls 6 of 9).
For L30Q, the assay gave 0.82, 0.92, 0.90 (mean 0.88; controls 1 of 9).
For Y31W Q95A S103V, the assay gave nd, nd, nd (controls 3 of 9).
For S33P K36Y P101T, the assay gave nd, nd, nd (controls 0 of 9).
For S58I E61Y Q95N, the assay gave nd, 5.13, nd (controls 1 of 9).
For S38M Q96H H98W, the assay gave 1.87, 2.31, 2.33 (mean 2.17; controls 0 of 9).
For S28P L100T, the assay gave 5.11, 4.01, nd (mean 4.56; controls 3 of 9).
For S25E Q27C S58C, the assay gave nd, 3.53, 4.78 (mean 4.16; controls 2 of 9).
For S28L L100W P101Y, the assay gave 2.16, 2.54, 2.16 (mean 2.29; controls 1 of 9).
For L30Y A40L, the assay gave 5.41, 3.59, nd (mean 4.50; controls 1 of 9).
For R34W V39P R99G, the assay gave nd, nd, nd (controls 1 of 9).
For V29L Y31H A40V, the assay gave 2.89, 2.63, 3.16 (mean 2.89; controls 4 of 9).

7 of these entries, quoted again:

{"changes": "L30Q", "replicates, log10 nM": "0.82, 0.92, 0.90", "log10 Kd (nM), mean": "0.88", "empty controls": "1 of 9"}
{"changes": "R60T Q95S S103Y", "replicates, log10 nM": "3.88, nd, 3.73", "log10 Kd (nM), mean": "3.81", "empty controls": "0 of 9"}
{"changes": "L30P E32V E61F", "replicates, log10 nM": "1.74, 1.73, 1.65", "log10 Kd (nM), mean": "1.71", "empty controls": "3 of 9"}
{"changes": "E32I T59D E61H", "replicates, log10 nM": "2.87, 2.45, 3.14", "log10 Kd (nM), mean": "2.82", "empty controls": "3 of 9"}
{"changes": "S25A S28T E61K", "replicates, log10 nM": "4.29, 1.92, nd", "log10 Kd (nM), mean": "3.10", "empty controls": "0 of 9"}
{"changes": "V29L Y31H A40V", "replicates, log10 nM": "2.89, 2.63, 3.16", "log10 Kd (nM), mean": "2.89", "empty controls": "4 of 9"}
{"changes": "L30C E32I W56E", "replicates, log10 nM": "nd, nd, nd", "log10 Kd (nM), mean": "nd", "empty controls": "0 of 9"}

For reference, the parent read 0.65 as the reference entry and 1.68 as a member of this library. Background: pairings of library AAYL50 with three empty control strains gave a value in 18% of cases (median 4.19, 5th percentile 2.99). Values in that range, when seen in few replicates, are hard to tell from nonspecific mating. The control count says in how many pairings with the empty strains this scFv gave a signal.